Results reported in patent publication US8946289B2, “Manassatin compounds and methods of making and using the same” (Duke University, priority 2008, dated 2015).

Columns and labels:
HIF-1 = test: ODD-Luc assay (luciferase reporter) for HIF-1 inhibitory activity; assay type: cell-based, mouse
Description: The HIF-1 inhibitory of compound 1, 18, and the anti-diol diastereomer 22 were assessed with the ODD-Luc assay (Li, F.; Sonveaux, P.; Rabbani, Z. N.; Liu, S.; Yan, B.; Huang, Q.; Vujaskovic, Z.; Dewhirst, M. W.; Li, C. Y. Mol. Cell 2007, 26, 63-74, which is incorporated by reference). 4T1-ODD-Luc cells, stably transfected with the oxygen-dependent-degradation (ODD) domain of HIF-1α and a firefly luciferase reporter, were seeded in the 24-well plate at a density of 10^5 cells/well. After 16-hour incubation, cells were treated with 240 μM of Cobalt (II) Chloride (Sigma-Aldrich, St. Louis, Mo., USA) and serially diluted compounds for 24 h. To measure the luciferase signals, luciferin (150 mg/mL) was added and the plates were imaged using the Xenogen IVIS imaging system and associated Living Image software (Xenogen, Alameda, Calif.). Luciferase expression/activity was detected and quantified as relative light units (RLUs). Results are means±SD, n=3.
To determine HIF-1 inhibitory activity of 31 and 33, a luciferase-reporter based assay was used as a primary screen. […] Luciferase signals were detected and quantified as relative light units (RLUs).

4T1 cells = system: 4T1 cells
Description: Like MTT (3-(4,5-d imethylthiazol-2-yl)-2,5-diphenyltetrazolium bromide, a tetrazole), MTS was reduced into a formazan product by living cells in the presence of an electron coupling reagent (phenazine methosulfate, PMS). The absorbance of the formazan was detected at 490 nm. […] Then cells were washed and incubated another three hours with cell medium containing MTS/PMS solution at 37° C. (21% O2, 5% CO2). Relative cell survival rate was determined on the O.D. values measured at 490 nm.

`COc1ccc([C@@H](O)[C@@H](C)Oc2ccc(C3OC(c4ccc(O[C@H](C)[C@H](O)c5ccc(OC)c(OC)c5)c(OC)c4)[C@H](C)[C@H]3C)cc2OC)cc1OC` (some centres unmarked) [Compound 33] was tested, and the “less active than manassantin A (fold)” value (HIF-1) was 10 fold.

`COc1ccc([C@@H](O)[C@@H](C)Oc2ccc(C3OC(c4ccc(O[C@H](C)[C@H](O)c5ccc(OC)c(OC)c5)c(OC)c4)[C@H](C)[C@H]3C)cc2OC)cc1OC` (some centres unmarked) [manassantin A] was tested, and the “therapeutic window IC50 (cytotoxicity)/IC50 (HIF-1 inhibition)” value (4T1 cells) was 100.
